Among the data in ChEMBL document CHEMBL4342468, “Evolution of a 4-Benzyloxy-benzylamino Chemotype to Provide Efficacious, Potent, and Isoform Selective PPARα Agonists as Leads for Retinal Disorders” (J Med Chem, 2020) are Ratio EC50 values, retold here.

Assay [1] is filed under the species Homo sapiens. Put plainly: Selectivity index, ratio of EC50 for human PPARgamma expressed in nonhuman mammalian cells to EC50 for human PPARalpha expressed in nonhuman mammalian cells measured after 22 to 24 hrs by luciferase reporter gene assay. It counts as cell-based. The method in brief:
(§1)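 Reporter cells (non-human mammalian) expressing human PPARα, γ or δ linked to a luciferase reporter were pre-incubated 4–6 h at 37 °C, 5% CO2 in medium with 10% charcoal-stripped FBS. They were then exposed to compound in screening medium for 22–24 h, and luminescence was read. […] SI = EC50(PPARγ or δ)/EC50(PPARα).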
For orientation: In a reporter assay the amount or activity of a reporter protein is the signal.

The species named for assay [2] is Homo sapiens. The assay is described as follows: Selectivity index, ratio of EC50 for human PPARdelta expressed in nonhuman mammalian cells to EC50 for human PPARalpha expressed in nonhuman mammalian cells measured after 22 to 24 hrs by luciferase reporter gene assay. It is filed as cell-based. The method in brief: as §1

In the case of `COc1ccc(COc2ccc(CNc3cccc(C(=O)O)c3)cc2)cc1`, the Ratio EC50 in the assay listed under Homo sapiens [1] and in the assay filed under Homo sapiens [2] was greater than 20 throughout.
